Read-outs that look alike come from different tables or passages of the source.

This test addresses T1, PK-C α (Homo sapiens, UniProt P17252).
T1 construct: made in house
Briefly: displacement of bound [3H-20]-phorbol-12,13-dibutyrate (PDBU) from single recombinant isozyme PK-C α. The settings on record: read-out: Apparent Ki for ligands as inhibitors of PDBU binding to PK-C. The method, then: This recombinant PK-C α was expressed in baculovirus and isolated as described by Kazanietz et al. (Mol. Pharmacol. 44: 298-307 (1993)).
The affinity of these ligands for PK-C was assessed in terms of their ability to displace bound [^3 H-20]-phorbol-12,13-dibutyrate (PDBU) from a purified product containing the single isozyme PK-C α.

Setting [1] is: Table II, racemic and chiral compounds.

On to `CCCCCCCC/C=C\CCCCCCC/C=C1\CC(CO)(COC(C)=O)OC1=O` (racemic) [Compound 11f, rac-(E)-5-(acetyloxymethyl)5-(hydroxymethyl)-3-[(Z)-9-octadecenoylidene]-tetrahydro-2-furanone], for which, for the setting “Table I”, the Ki turned out to be 28 ± 2.19 nM. On to `CCCCCCCC/C=C\CCCCCCC/C=C1/C[C@@](CO)(COC(C)=O)OC1=O`, for which, under setting [1], the Ki stood at 11 ± 0.3 nM.

Regarding `CCCCCCCC/C=C\CCCCCCC/C=C1\CC(CO)(COC(C)=O)OC1=O` (stereo not drawn), under setting [1], the Ki amounted to 28 ± 2.19 nM.

The values are drawn from patent publication US5874464A, “Conformationally constrained diacylglycerol analogues” (The United States of America as represented by the …, priority 1995, dated 1999).
